Test results published in patent US4962119A, “Triazole derivatives of fenamates as antiinflammatory agents” (Warner-Lambert Company, priority 1989, dated 1990).

Sequences of proteins named here, by UniProt entry; tags and fusion partners are left off. Residues count along the entry.
UniProt Q63921, 27-602: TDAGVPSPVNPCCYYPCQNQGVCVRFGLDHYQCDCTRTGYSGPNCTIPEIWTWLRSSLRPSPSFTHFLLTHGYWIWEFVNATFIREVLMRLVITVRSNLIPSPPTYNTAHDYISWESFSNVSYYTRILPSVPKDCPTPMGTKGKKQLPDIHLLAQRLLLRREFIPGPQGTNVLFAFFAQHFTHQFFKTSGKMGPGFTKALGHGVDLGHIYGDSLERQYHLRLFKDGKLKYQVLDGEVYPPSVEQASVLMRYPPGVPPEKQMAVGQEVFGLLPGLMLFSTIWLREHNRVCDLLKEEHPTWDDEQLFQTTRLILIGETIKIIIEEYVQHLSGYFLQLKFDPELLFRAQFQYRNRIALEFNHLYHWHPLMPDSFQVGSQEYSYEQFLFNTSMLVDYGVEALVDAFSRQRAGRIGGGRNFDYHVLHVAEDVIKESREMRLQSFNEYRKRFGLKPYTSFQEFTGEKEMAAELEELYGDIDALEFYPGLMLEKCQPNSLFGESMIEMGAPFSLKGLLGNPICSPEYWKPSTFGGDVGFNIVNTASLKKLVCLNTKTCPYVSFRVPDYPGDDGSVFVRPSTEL

Target: Cyclooxygenase (Rattus norvegicus, UniProt Q63921)
Test: cell-based
Protocol: The rat basophilic leukemia cell line (RBL-1) was obtained from the American Type Culture Collection (Rockville, Md.).
All tissue culture media were obtained from GIBCO (Grand Island, N.Y.).
RBL-1 cells are grown in suspension culture in Eagle's minimum essential medium supplemented with 12% fetal bovine serum at 37° C. in an incubator supplied with air-5% carbon dioxide. Cells are harvested by centrifugation. They are washed with cold phosphate buffered saline pH 7.4 (PBS; NaCl, 7.1 g; Na2 HPO4, 1.15 g; KH2 PO4, 0.2 g; and KCl, 0.2 g/l). […] The reaction is stopped by chilling the tubes on ice for ten minutes. Cells are separated by centrifugation and the supernatant is stored at -20°.

## FC(F)(F)c1cccc(Nc2ccccc2-c2n[nH]c(S)n2)c1 [Example 4, 5-[2-[(3-trifluoromethylphenyl)amino]phenyl]-2,4-dihydro-3H-1,2,4-triazole-3-thione]
  pIC50: 6.29

pIC50: −log10 of the molar value.
